Experimental data taken from PubChem BioAssay AID1159580 (chemical genetic matrix, 2015).
The entries are a selection whose mix differs from that of the whole data set. Active and inactive are the calls of the source. Cut-off read from the data, not from the text of the source: active = normalized growth mostly below about 0.91 (no sharp cut-off); inconclusive = no clear call, values can overlap the other calls; inactive = mostly above about 0.92.

Test: chemical genetic growth profiling, strain panel (AID 1159580);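 note: tested at 20 µM; growth read once vehicle control cultures reached saturation at 30 °C; 1 = growth at the plate median or of vehicle wells; lower values mean less growth of the strain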
Settings: growth OD

Measured: normalized growth

CN(CCCl)CCCl
active: S. cerevisiae deletion strains, locus YJR066W, strain TOR1, stronger effect = lower value 0.0142 | S. cerevisiae deletion strains, locus YJR075W, strain HOC1, stronger effect = lower value 0.0654 | S. cerevisiae deletion strains, locus YKL009W, strain mrt4, stronger effect = lower value 0.0849 | S. cerevisiae deletion strains, locus YKL068W, stronger effect = lower value 0.0604 | S. cerevisiae deletion strains, locus YKL085W, strain MDH1 (second series), stronger effect = lower value 0.054 | S. cerevisiae deletion strains, locus YKL085W, strain MDH1, stronger effect = lower value 0.054 | S. cerevisiae deletion strains, locus YKL160W, strain elf1, stronger effect = lower value 0.0629 | S. cerevisiae deletion strains, locus YKL190W, strain CNB1, stronger effect = lower value 0.0509 | S. cerevisiae deletion strains, locus YKR001C, strain vps1, stronger effect = lower value 0.0643 | S. cerevisiae deletion strains, locus YKR026C, strain gcn3, stronger effect = lower value 0.065 | S. cerevisiae deletion strains, locus YKR091W, strain srl3, stronger effect = lower value 0.0603 | S. cerevisiae deletion strains, locus YLL001W, strain dnm1, stronger effect = lower value 0.0595 | S. cerevisiae deletion strains, locus YLL026W, stronger effect = lower value 0.0607 | S. cerevisiae deletion strains, locus YLL041C, strain sdh2, stronger effect = lower value 0.0588 | S. cerevisiae deletion strains, locus YLR027C, strain aat2, stronger effect = lower value 0.0557 | S. cerevisiae deletion strains, locus YLR039C, strain RIC1, stronger effect = lower value 0.0984 | S. cerevisiae deletion strains, locus YLR058C, strain SHM2, stronger effect = lower value 0.051 | S. cerevisiae deletion strains, locus YLR102C, strain apc9, stronger effect = lower value 0.0624 | S. cerevisiae deletion strains, locus YLR113W, strain HOG1, stronger effect = lower value 0.127 | S. cerevisiae deletion strains, locus YLR221C, strain rsa3, stronger effect = lower value 0.062 | S. cerevisiae deletion strains, locus YLR258W, strain gsy2, stronger effect = lower value 0.0616 | S. cerevisiae deletion strains, locus YLR262C, strain YPT6 (second series), stronger effect = lower value 0.0823 | S. cerevisiae deletion strains, locus YLR262C, strain YPT6, stronger effect = lower value 0.11 | S. cerevisiae deletion strains, locus YLR268W, strain sec22, stronger effect = lower value 0.0656 | S. cerevisiae deletion strains, locus YLR320W, strain mms22, stronger effect = lower value 0.0861 | S. cerevisiae deletion strains, locus YLR330W, strain CHS5, stronger effect = lower value 0.0554 | S. cerevisiae deletion strains, locus YLR342W, strain FKS1 (second series), stronger effect = lower value 0.0772 | S. cerevisiae deletion strains, locus YLR342W, strain FKS1, stronger effect = lower value 0.0663 | S. cerevisiae deletion strains, locus YLR357W, strain rsc2, stronger effect = lower value 0.121 | S. cerevisiae deletion strains, locus YLR370C, strain arc18, stronger effect = lower value 0.0609 | S. cerevisiae deletion strains, locus YLR371W, strain rom2, stronger effect = lower value 0.0633 | S. cerevisiae deletion strains, locus YLR384C, strain iki3, stronger effect = lower value 0.0625 | S. cerevisiae deletion strains, locus YLR418C, strain cdc73, stronger effect = lower value 0.0939 | S. cerevisiae deletion strains, locus YML016C, strain PPZ1, stronger effect = lower value 0.0519 | S. cerevisiae deletion strains, locus YML032C, strain rad52, stronger effect = lower value 0.0693 | S. cerevisiae deletion strains, locus YML120C, strain ndi1, stronger effect = lower value 0.0588 | S. cerevisiae deletion strains, locus YML124C, strain tub3, stronger effect = lower value 0.0596 | S. cerevisiae deletion strains, locus YMR058W, strain fet3, stronger effect = lower value 0.0595 | S. cerevisiae deletion strains, locus YMR078C, strain ctf18, stronger effect = lower value 0.0743 | S. cerevisiae deletion strains, locus YMR125W, strain sto1, stronger effect = lower value 0.0732 | S. cerevisiae deletion strains, locus YMR129W, stronger effect = lower value 0.0577 | S. cerevisiae deletion strains, locus YMR205C, strain PFK2, stronger effect = lower value 0.0855 | S. cerevisiae deletion strains, locus YMR223W, strain ubp8, stronger effect = lower value 0.0632 | S. cerevisiae deletion strains, locus YMR231W, strain pep5, stronger effect = lower value 0.0696 | S. cerevisiae deletion strains, locus YMR263W, strain SAP30, stronger effect = lower value 0.0646 | S. cerevisiae deletion strains, locus YMR307W, strain GAS1, stronger effect = lower value 0.121 | S. cerevisiae deletion strains, locus YNL067W, strain RPL9B, stronger effect = lower value 0.0543 | S. cerevisiae deletion strains, locus YNL071W, strain lat1, stronger effect = lower value 0.0605 | S. cerevisiae deletion strains, locus YNL128W, strain TEP1, stronger effect = lower value 0.0653 | S. cerevisiae deletion strains, locus YNL153C, strain GIM3, stronger effect = lower value 0.0483 | S. cerevisiae deletion strains, locus YNL183C, strain NPR1, stronger effect = lower value 0.00229 | S. cerevisiae deletion strains, locus YNL209W, strain ssb2, stronger effect = lower value 0.0607 | S. cerevisiae deletion strains, locus YNL233W, strain BNI4, stronger effect = lower value 0.0557 | S. cerevisiae deletion strains, locus YNL248C, strain rpa49, stronger effect = lower value 0.0717 | S. cerevisiae deletion strains, locus YNL250W, strain rad50, stronger effect = lower value 0.0702 | S. cerevisiae deletion strains, locus YNL271C, strain bni1, stronger effect = lower value 0.0672 | S. cerevisiae deletion strains, locus YNL298W, strain CLA4, stronger effect = lower value 0.0642 | S. cerevisiae deletion strains, locus YNL307C, strain MCK1, stronger effect = lower value 0.0699 | S. cerevisiae deletion strains, locus YNL322C, strain KRE1 (second series), stronger effect = lower value 0.0856 | S. cerevisiae deletion strains, locus YNL322C, strain KRE1, stronger effect = lower value 0.0511 | S. cerevisiae deletion strains, locus YNR049C, strain mso1, stronger effect = lower value 0.0575 | S. cerevisiae deletion strains, locus YNR052C, strain pop2, stronger effect = lower value 0.0643 | S. cerevisiae deletion strains, locus YOL006C, strain TOP1, stronger effect = lower value 0.116 | S. cerevisiae deletion strains, locus YOL147C, strain pex11, stronger effect = lower value 0.0577 | S. cerevisiae deletion strains, locus YOR001W, strain rrp6, stronger effect = lower value 0.0707 | S. cerevisiae deletion strains, locus YOR061W, strain CKA2, stronger effect = lower value 0.047 | S. cerevisiae deletion strains, locus YOR069W, strain VPS5, stronger effect = lower value 0.0544 | S. cerevisiae deletion strains, locus YOR070C, strain gyp1, stronger effect = lower value 0.0603 | S. cerevisiae deletion strains, locus YOR080W, strain dia2, stronger effect = lower value 0.0708 | S. cerevisiae deletion strains, locus YOR083W, strain WHI5, stronger effect = lower value 0.0636 | S. cerevisiae deletion strains, locus YOR106W, strain vam3, stronger effect = lower value 0.0609 | S. cerevisiae deletion strains, locus YOR136W, strain idh2, stronger effect = lower value 0.0736 | S. cerevisiae deletion strains, locus YOR144C, strain elg1, stronger effect = lower value 0.0589 | S. cerevisiae deletion strains, locus YOR184W, strain ser1, stronger effect = lower value 0.0702 | S. cerevisiae deletion strains, locus YOR231W, strain MKK1, stronger effect = lower value 0.118 | S. cerevisiae deletion strains, locus YOR265W, strain rbl2, stronger effect = lower value 0.0581 | S. cerevisiae deletion strains, locus YOR270C, strain vph1, stronger effect = lower value 0.0929 | S. cerevisiae deletion strains, locus YOR290C, strain snf2, stronger effect = lower value 0.0656 | S. cerevisiae deletion strains, locus YOR316C, strain cot1, stronger effect = lower value 0.0595 | S. cerevisiae deletion strains, locus YPL051W, strain arl3, stronger effect = lower value 0.0646 | S. cerevisiae deletion strains, locus YPL055C, strain LGE1, stronger effect = lower value 0.0719 | S. cerevisiae deletion strains, locus YPL078C, strain atp4, stronger effect = lower value 0.0631 | S. cerevisiae deletion strains, locus YPL106C, strain sse1, stronger effect = lower value 0.106 | S. cerevisiae deletion strains, locus YPL240C, strain hsp82, stronger effect = lower value 0.057 | S. cerevisiae deletion strains, locus YPL241C, strain CIN2, stronger effect = lower value 0.0556 | S. cerevisiae deletion strains, locus YPL256C, strain CLN2, stronger effect = lower value 0.147 | S. cerevisiae deletion strains, locus YPR119W, strain clb2, stronger effect = lower value 0.0641 | S. cerevisiae deletion strains, locus YPR141C, strain kar3, stronger effect = lower value 0.0749 | S. cerevisiae deletion strains, locus YPR163C, strain tif3, stronger effect = lower value 0.0712 | S. cerevisiae deletion strains, locus YPR167C, strain met16, stronger effect = lower value 0.0619 | S. cerevisiae deletion strains, strain wtn01, stronger effect = lower value 0.0597 | S. cerevisiae strains, strain wild type, stronger effect = lower value 0.0496
